Earlier results on 1 substance are cited in US11744789B2, “Method for dyeing keratinous material, comprising the use of an organosilicon compound, a colored effect pigment and a sealing reagent III” (Henkel AG & Co. KGaA, priority 2019, dated 2023).

The conditions of this series: 25° C.

For the substance “3,4,5,6-tetrachloro-2-(1,4,5,8-tetrabromo-6-hydroxy-3-oxoxanthen-9-yl)benzoic acid [Acid Red 92]”, the solubility in water entry is given as “greater than 10 g/L”.
